GLP1R inv ag: inverse agonists of human GLP-1 receptor. P43220. HEK293 GLP-1R CRE-luciferase, luminescence, 24 h; GLP-1R form is constitutively active. Potency, µM (doses to about 38.3 µM), inactives show at the highest dose activity change, negative = inhibition, hits mostly inhibitors. 410,000 compounds, 1.6% hits. AID 624417; note: potency is the fitted concentration of half-maximal effect; % is set by controls: 0 for no effect and ±100 for the full control effect; nearly all actives have a fitted effect of over 55% in size
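Readout was luciferase luminescence, measured 12 min after detection reagent at room temperature. Beforehand, GLP-1R reporter HEK293 cells had sat 12 h, then received compounds for 24 hr at 37 deg C.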
miR-21 reporter: miR-21 reporter, rising signal | HeLa miR-21 FLuc reporter, luciferase, 48 h | Potency, µM (highest dose often 38.3 µM), for inactives: at the top dose reporter change, positive = more light | 340,000 tested, under 10 active | AID 2288; active = well fitted rising curve with a large enough effect; inconclusive = small, poorly fitted or top-dose-only effect; inactive = no such curve, though single readings can be large or run the other way;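 further: % of control where 0% means no effect; miR-21 action dims this reporter so a rising signal means less miR-21 action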
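HeLa cells stably expressing CMV-driven firefly luciferase with a downstream miR-21 binding sequence, endogenously expressing miR-21, were treated with titrations (up to about 40uM final) for 48 hours at 37 degree Celsius. Luciferase luminescence was read after lysis.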
GLP-1R agonist: activates the human GLP-1 receptor | HEK293 GLP-1R CRE-luciferase, luminescence, 4-6 h; cells express a hypersensitive GLP-1R form | 380,000 compounds, 0.007% hits | Potency, µM (doses to about 45.6 µM), without a hit: at the top dose activation, usual class: activators; note: potency is the fitted concentration of half-maximal effect; % of control where 0% means no effect
HEK293 tox: cytotoxicity in counter-screen for GLP-1R inverse agonists | Potency, µM (top dose mostly 38.3 µM), for inactives: top-dose activity change, negative = inhibition, usual class: inhibitors | AID 624418 | HEK293 cAMP-luciferase reporter cells, luminescence, 24 h | 410,000 compounds, 0.13% hits;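 note: loss of luciferase light is scored as toxicity; potency is the fitted concentration of half-maximal effect; % is set by controls: 0 for no effect and ±100 for the full control effect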
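Step one: seed cells (200 cells/uL, DMEM with 10% Nu serum, 1% pen-strep). Step two: 12-hour incubation at 37 deg C. Step three: pin 23 nL compound, incubate 24 hr. Step four: add luciferase reagent, read luminescence 12 min later.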
PTHR1 agonist: agonists of human PTHR1 parathyroid hormone receptor; HEK293 GP2 PTHR1 cells, GloSensor cAMP luminescence, 1 h; Potency, µM (highest dose often 115 µM), without a hit: top-dose activation, usual class: activators; 410,000 compounds, 0.075% hits; note: potency is the fitted concentration of half-maximal effect; nearly all actives have a fitted effect of over 55% in size
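HEK-293-derived GP2 cells expressing PTHR1 and a GloSensor cAMP reporter, 3,000/well, plated overnight, given luciferin plus IBMX (each 0.5 mM as added) for 1 h at 37 °C, then compound for 1 h at 37 °C. Luminescence was read after 15 min at room temperature.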
Pin1 inh: inhibitors of human Pin1. Pin1 FP peptide displacement, HiFluor488, 10 min. Potency, µM (titrated, usually from 115 µM), for the others: top-dose activity, negative = inhibition, most hits filed as inhibitors. 390,000 compounds, 0.009% hits. AID 504891; active = well fitted inhibition curve with a large enough effect in the polarisation, with a control signal flat, not every such curve was filed as active; inconclusive = small, poorly fitted or top-dose-only effect, or effect the other way, or a change in a side signal; inactive = no such curve, though single readings can be large or run the other way; the % refers to the polarisation; note: potency is the fitted concentration of half-maximal effect; % is set by controls: 0 for no effect and ±100 for the full control effect
Numbers without * were called inactive; i = inactive; ? = inconclusive; / = no result; [ ] = another dose, or the depositor's remark. Rows were chosen to be rich in hits. Some 1.7% of all compounds tested hit in one or more screens of this group. Unless noted, calls come from the whole dose curve; as a rule, active = well fitted curve in the direction sought with a large enough effect; inconclusive = small, poorly fitted or top-dose-only effect, or another doubt; inactive = no such curve, though single readings can be large; an effect the other way counts as inactive or inconclusive.

molecule	GLP1R inv ag	miR-21 reporter	GLP-1R agonist	HEK293 tox	PTHR1 agonist	Pin1 inh
CCOc1ccc(C(=O)Nc2ccccc2C(=O)OCc2cc(=O)n3nc(C4CC4)sc3n2)cc1	0%	0%	/	1%	i	-2%
Cc1cc(C)c(S(=O)(=O)Nc2ccc(-c3ccc(N4CCCCC4)nn3)cc2)cc1C	-7%	-3%	/	-8%	i	14%
Cc1cc(C)c(S(=O)(=O)Nc2ccc(-c3ccc(N4CCCCCC4)nn3)cc2)cc1C	13µM*	-1%	/	-10%	i	-3%
CC(C)NC(=S)NN(c1ccccc1)c1ccccc1	11µM*	-2%	-3%	-19%	-1%	-4%
O=S(=O)(c1ccc2c(c1)OCCO2)N1CCN(S(=O)(=O)c2ccc(Br)cc2F)CC1	/	/	/	/	/	15%
CC(C)(C)c1ccc(S(=O)(=O)N2CCN(CCC#N)CC2)cc1	10%	1%	-3%	3%	-41%	3%
N#CCCN1CCN(Cc2cc(-c3ccccc3)ccc2O)CC1	0%	-6%	-9%	-14%	16µM*	1%
CC(C)(C)CC(C)(C)c1ccc(O)c(CN2CCN(CCC#N)CC2)c1	11µM*	16%	4%	-24%	0%[57.5 µM]	-2%
Oc1c(CN2CCOCC2)cc(-c2ccccc2)cc1CN1CCOCC1	-11%	-7%	6%	-9%	-13%[57.5 µM]	-7%
CCc1ccc(S(=O)(=O)Nc2ccc3[nH]c(=O)sc3c2)cc1	-17%	5%	/	0%	-29%	-4%

Reformatted with values under each structure: entries from further up
Results follow in this order: GLP1R inv ag, miR-21 reporter, GLP-1R agonist, HEK293 tox, PTHR1 agonist, Pin1 inh
- Cc1cc(C)c(S(=O)(=O)Nc2ccc(-c3ccc(N4CCCCCC4)nn3)cc2)cc1C
 : 13µM*, -1%, /, -10%, i, -3%
- Oc1c(CN2CCOCC2)cc(-c2ccccc2)cc1CN1CCOCC1
 : -11%, -7%, 6%, -9%, -13%[57.5 µM], -7%
- CC(C)NC(=S)NN(c1ccccc1)c1ccccc1
 : 11µM*, -2%, -3%, -19%, -1%, -4%
- N#CCCN1CCN(Cc2cc(-c3ccccc3)ccc2O)CC1
 : 0%, -6%, -9%, -14%, 16µM*, 1%
- CC(C)(C)c1ccc(S(=O)(=O)N2CCN(CCC#N)CC2)cc1
 : 10%, 1%, -3%, 3%, -41%, 3%
- O=S(=O)(c1ccc2c(c1)OCCO2)N1CCN(S(=O)(=O)c2ccc(Br)cc2F)CC1
 : /, /, /, /, /, 15%

The results go on.
molecule	GLP1R inv ag	miR-21 reporter	GLP-1R agonist	HEK293 tox	PTHR1 agonist	Pin1 inh
OCC1(Cc2ccc(Cl)cc2)CCN(CCCc2ccccc2)CC1	?	-8%	2%	?	-13%	2%
O=C(NC1(Cc2ccccc2)CCN(CCCc2ccccc2)C1=O)c1ccccc1 (stereo not given)	11µM*	/	7%	-16%	-3%	-8%
CNc1ccccc1C(C)(C)c1cc(-c2cccc(Br)c2)no1	2.8µM*	13%	18%	-2%	-43%	45%
O=C(Nc1cc(Cl)ccc1Cl)c1ccco1	29%	-5%	0%	11%	-44%	-2%
CS/C(Nc1cc(Cl)ccc1Cl)=C(/C#N)C(=O)c1ccco1	6.3µM*	7%	-4%	-5%	-32%	0%
C=CCNC(=S)Nc1sc2c(c1C(=O)OCC)CC(C)(CC)OC2 (stereo not given)	-3%	-6%	1%	10µM*	-5%	7%
O=C1CCc2cc([S+](=O)([O-])Nc3ccc(N[S+](=O)([O-])c4ccc5c(c4)CCC(=O)N5)cc3)ccc2N1	/	/	/	/	/	-2%
COc1cccc(C(=O)N2c3nc(-c4ccco4)nn3C3(CCCCC3)[C@@H]3CCCC[C@@H]32)c1	?	?	/	-29%	i	23%
CCc1c(C#N)c(SCCC(=O)Nc2ccc(OC)cc2)nc2c1C(=O)CC(C)(C)C2	?	1%	4%	2%	i	27%
CCc1c(C#N)c(SCc2c(C)noc2C)nc2c1C(=O)CC(C)(C)C2	8.9µM*	5%	3%	7%	-51%	26%
Cc1cc(N2CCCCCC2)nc(-c2ccccc2O)n1	?	-4%	-5%	-1%	?	-10%
Cc1cc(N2CCCCC2C)nc(-c2ccccc2O)n1 (stereo not given)	11µM*	-7%	22%	-1%	i	-12%
CCN(CC)CCCn1c2c(c(SCC(=O)Nc3ccc(OC(F)(F)F)cc3)nc1=O)CCC2	3.5µM*	/	1%	-12%	-2%	3%
CCN(CC)CCCn1c2c(c(SCC(=O)Nc3ccc(C)c(F)c3)nc1=O)CCC2	10µM*	/	1%	6%	-34%	-8%
Cc1cccc(C(=O)n2c(=S)nc3cc(C)ccn32)c1	?	-69%	4%	?	-29%	36%
Cc1ccn2c(c1)nc(=S)n2C(=O)c1ccccc1	2.5µM*	-37%	-12%	-19%	-36%	-1%
COc1ccccc1NC(=S)NCCSc1ccc(C)cc1	11µM*	-2%	1%	?	i	-1%
CC(/C=C/c1ccccc1)=N\NC(N)=S	2.5µM*	-10%	2%	?	-12%	-6%
CCC(/C=C1\Sc2ccc(OC)cc2N1CCO)=C\c1sc2ccc(OC)cc2[n+]1CCO	10µM*	23%	3%	-18%	i	?
CCC(/C=C1\Sc2ccc(OC)cc2N1CC)=C\c1sc2ccc(OC)cc2[n+]1CCCS(=O)(=O)[O-]	-29%	9%	-6%	-31%	-22%	17%
COc1ccc(CN2CSC(=S)N(Cc3ccccc3)C2)cc1	10µM*	7%	21%	?	-5%	2%
S=C1SCN(Cc2cccnc2)CN1Cc1cccnc1	3.2µM*	?	-2%	?	-2%	3%
Clc1ccccc1CSc1nc2ccncc2[nH]1	-2%	-39%	5%	-3%	-43%	-1%
O=C(NCc1ccccc1Cl)c1ccc(CSc2nc3ccncc3[nH]2)cc1	10µM*	9%	8%	-4%	-10%	7%
CCN(CC)S(=O)(=O)c1cccc(NC(=O)CN(C)C2CCCCC2)c1	?	-2%	9%	0%	-5%	3%
CCN(CC)S(=O)(=O)c1cccc(NC(=O)CNC2CCCCCC2)c1	7.9µM*	6%	-7%	-4%	i	-3%
FC(F)Oc1ccc(NC(=S)NC23CC4CC(CC(C4)C2)C3)cc1	4.5µM*	25%	6%	?	-78%	2%
CCOc1ccc(NC(=S)NC23CC4CC(CC(C4)C2)C3)cc1	4%	-3%	-2%	4%	9%	7%
CN(C)S(=O)(=O)c1cccc(NC(=S)NC2CCCCC2)c1	11µM*	-2%	4%	-6%	-5%	-3%
NS(=O)(=O)c1cccc(NC(=S)NC(=O)C23CC4CC(CC(C4)C2)C3)c1	1.3µM*	-50%	10%	-16%	-21%	0%
Cc1ccc(S(=O)(=O)N(C)C)cc1NC(=S)NC(=O)C12CC3CC(CC(C3)C1)C2	?	-6%	-1%	0%	-18%	0%
Cc1ccc(N(CC(=O)N2CCN(c3cccc(C)c3C)CC2)S(=O)(=O)c2c(C)nn(C)c2C)cc1	?	?	-5%	4%	-1%	?
N=c1c2c(ccn1CCCCc1ccccc1)Oc1ccc3ccccc3c1C2c1ccccc1 (stereo not given)	/	/	/	/	/	-2%
c1csc(CNc2ncnc3cc(-c4ccc5c(c4)OCO5)ccc23)c1	/	/	/	/	/	39%
c1ccc(N=c2nc(-c3ccccc3)n(-c3ccccc3)s2)cc1	/	/	/	/	/	7%
CCC(=O)Nc1ccc2nc(SCCOc3ccc(C)cc3OC)sc2c1	-15%	-1%	/	-7%	i	-1%
